## scFv variants of Ab-91 (heavy chain) against a SARS-CoV-2 spike peptide

All variants were tested on one target, the spike HR2 peptide PDVDLGDISGINAS (SARS-CoV-2).

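The starting antibody came from a phage panning campaign against this peptide. AAYL51 was designed without a model: most single CDR substitutions and a random sample of double and triple ones. In AlphaSeq, yeast of one mating type display the scFv and yeast of the other type display the target. Binding brings cells together so that they mate, and sequencing counts the barcode pairs among the diploids. Scores were corrected for input abundance and mapped to Kd with protein pairs of known affinity run in the same pool. There are three technical replicates.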

The variants keep the light chain, the linker and the frameworks of Ab-91 (scFv order VL, three GGGGS repeats, VH).
VL: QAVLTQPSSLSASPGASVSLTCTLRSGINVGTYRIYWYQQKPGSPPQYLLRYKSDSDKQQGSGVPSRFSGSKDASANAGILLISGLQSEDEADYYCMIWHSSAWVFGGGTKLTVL
VH: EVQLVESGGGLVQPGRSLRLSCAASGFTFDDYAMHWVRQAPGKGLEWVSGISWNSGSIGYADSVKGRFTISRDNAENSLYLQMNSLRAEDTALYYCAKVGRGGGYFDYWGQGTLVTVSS

Variants are written as CDR1, CDR2 and CDR3 of the heavy chain (limits as in the source). Parent: GFTFDDYAMH, GISWNSGSIGYADSVK, VGRGGGYFDY. This list gathers variants with a substitution at H35 (VH, numbered from residue 1). The Kd shown is the geometric mean over detected replicates; a lower Kd is a better binder. "nd" means that the variant was in the library but no mating with the target was seen in any replicate; the authors take this as a sign of poor binding, and no number exists. As a blank, each scFv also met three strains without target: over library AAYL51, 21% of these pairings were detected, typically at 34 µM and seldom below 1.8 µM. For each scFv, signals with the empty controls are counted beside the result.

Variant GFTFDDYAMN, GISWNSGSIGYADSVK, VGRGGGYFDY gave 390 µM (1 of 3 replicates; controls 2 of 9).
Variant GFTFDDYAMV, GISWNSGSIGYADSVK, VGRGGGYADY gave 6.0 µM (1 of 3 replicates; controls 1 of 9).
Variant GFTFLDYAMN, GISWNSISIGYADSVK, VGRGGGYFDY gave 190 µM (3 of 3 replicates; controls 7 of 9).
Variant GFTFDDYAMA, GISWNVGSIGYADSVK, VGRGGGKFDY gave nd (0 of 3 replicates; controls 0 of 9).
Variant GFTFDDYAMM, GISWKLGSIGYADSVK, VGRGGGYFDY gave nd (0 of 3 replicates; controls 4 of 9).
Variant GFTFDDYAMS, GISWNSGSIGYADSLK, PGRGGGYFDY gave 1.4 mM (1 of 3 replicates; controls 2 of 9).
Variant GGTFDDYAME, GISWNSGDIGYADSVK, VGRGGGYFDY gave 1.7 µM (1 of 3 replicates; controls 1 of 9).
Variant GFTFDDYMMD, GISWNSGSIGYADSVK, VGRGGGYYDY gave nd (0 of 3 replicates; controls 0 of 9).
Variant GFTFDDYAMV, GISWNSGSIGDADSVK, VGRGGGHFDY gave 14 µM (1 of 3 replicates; controls 2 of 9).
Variant GFTFDDYAMS, GISWNSGSIGYADRVK, VGRGGGVFDY gave nd (0 of 3 replicates; controls 1 of 9).
Variant GFTFDDYAMV, GISWNSGSIGYADQVK, MGRGGGYFDY gave 33 µM (2 of 3 replicates; controls 5 of 9).
Variant GFTFNDYAMA, GISWNSGSIGYKDSVK, VGRGGGYFDY gave 910 nM (3 of 3 replicates; controls 3 of 9).
Variant GFTFDDCAMG, GISWNSGSIGYADSNK, VGRGGGYFDY gave 200 µM (3 of 3 replicates; controls 5 of 9).
Variant GFTFADYAMS, GISWNSGSIRYADSVK, VGRGGGYFDY gave 2.6 µM (1 of 3 replicates; controls 1 of 9).
Variant GFTFDDYAMF, GISWNSGSIPYADSVV, VGRGGGYFDY gave nd (0 of 3 replicates; controls 0 of 9).
Variant GFTFDGYAMI, GISWNCGSIGYADSVK, VGRGGGYFDY gave nd (0 of 3 replicates; controls 0 of 9).
Variant GDTFDDYAMD, GISWNSGSIGYADHVK, VGRGGGYFDY gave 63 µM (3 of 3 replicates; controls 4 of 9).
Variant IFTFDDYAMA, DISWNSGSIGYADSVK, VGRGGGYFDY gave nd (0 of 3 replicates; controls 0 of 9).
Variant GFTEDDYAML, GISWNSGSIGYADSVK, VGEGGGYFDY gave nd (0 of 3 replicates; controls 0 of 9).
Variant DFTFDDYAMV, GISWNSGSIGYADSVK, VGRGGGYFDY gave 25 nM (3 of 3 replicates; controls 3 of 9).
Variant GFTFDDYAMG, GISWNSGAIGYADSVK, VGRGGEYFDY gave nd (0 of 3 replicates; controls 1 of 9).
Variant GGTFDDYAMY, GISWNSGSIGYADSVK, VGRGGPYFDY gave 84 µM (2 of 3 replicates; controls 6 of 9).
Variant GFTFDDYAMP, GISWNSGSIGYSDSVK, VGRGIGYFDY gave 120 µM (2 of 3 replicates; controls 2 of 9).
Variant GFTFDDYAMT, GISWNVGSIGHADSVK, VGRGGGYFDY gave nd (0 of 3 replicates; controls 1 of 9).
Variant GFTFDDYDMI, GISWNSGSIGYADSVK, VGRGGPYFDY gave 110 µM (2 of 3 replicates; controls 6 of 9).
Variant GFTFDDYAMS, GIQWNSGSIGYAQSVK, VGRGGGYFDY gave nd (0 of 3 replicates; controls 0 of 9).
Variant GFTFDDYAMM, GISWNSGSIGYADSVK, VGRGGTYFVY gave nd (0 of 3 replicates; controls 1 of 9).
Variant GFCFDDYAMG, GISSNSGSIGYADSVK, VGRGGGYFDY gave 29 µM (1 of 3 replicates; controls 5 of 9).
Variant GFTFDDYAME, HISWNSGSIGYADSVK, VGRGGYYFDY gave 900 nM (1 of 3 replicates; controls 0 of 9).
Variant GFTFDDYAMQ, GISWNSGSIGYAFSVK, VGRGGGYSDY gave nd (0 of 3 replicates; controls 0 of 9).
Variant GFTFDDYFME, GISWNSVSIGYADSVK, VGRGGGYFDY gave nd (0 of 3 replicates; controls 0 of 9).
Variant GFTFDMYAMQ, GISWNSGSVGYADSVK, VGRGGGYFDY gave 18 µM (2 of 3 replicates; controls 1 of 9).
Variant GFTFDDYAME, GISWNSGSIGYADSVK, VGRHGGDFDY gave nd (0 of 3 replicates; controls 2 of 9).
Variant GFTFDDYAMF, GISWNSGSHGYADSVK, VGRGGGYFDK gave nd (0 of 3 replicates; controls 1 of 9).
Variant GFTFDDYAMT, GISWNSGVIGYADSVE, VGRGGGYFDY gave nd (0 of 3 replicates; controls 2 of 9).
Variant GFTFDDYAML, GISWNSGSIHYADSVK, HGRGGGYFDY gave 32 µM (1 of 3 replicates; controls 3 of 9).
Variant GFTFDDYAMT, GISWNSGSIQYADSVK, VGRGGGYFRY gave nd (0 of 3 replicates; controls 1 of 9).

A selection of 2 entries from above:

The variant GFTFDDYAMS, GISWNSGSIGYADRVK, VGRGGGVFDY gave nd (0 of 3 replicates; controls 1 of 9).
The variant GFTFDDYFME, GISWNSVSIGYADSVK, VGRGGGYFDY gave nd (0 of 3 replicates; controls 0 of 9).

Source: Engelhart et al. 2022 (doi:10.1038/s41597-022-01779-4), MIT Lincoln Laboratory and A-Alpha Bio; data file from the FLAb repository.